Laboratory results as given in US20120171126A1, “NOVEL [3,2-c] HETEROARYL STEROIDS AS GLUCOCORTICOID RECEPTOR AGONISTS COMPOSITIONS AND USES THEREOF” (priority 2009, published 2012).

Tested on: IL-8
Experiment: Glucocorticoid transrepression assay, IL-8 inhibition (TR)
Assay type: cell-based
Details: Homo sapiens
Experimental: Human Lung epithelial cell line NCl-H292 cells were dissociated from stock flask using 0.05% trypsin/0.53 mM EDTA. Cells were suspended in complete medium and counted. Cells were plated in 96-well flat-bottom plates at 20K cells /well in 0.2 ml/well. Plates were incubated for 24-48 hours until cells were between 75-90% confluent. Medium was aspirated and replaced with medium containing various concentrations of steroids or antagonists. After 1 hour incubation at 37°, TNFα (10 ng/ml final concentration in 0.2 ml) was added and the cells incubated overnight. Control wells with and without TNF were included on each plate, as well as wells with TNF in addition to a maximum (10 μM) concentration of dexamethasone. The cell culture medium was sampled and IL-6 and IL-8 cytokine production was measured using the MSD Multi-Spot immunoassay.

## CC12Cc3cnn(-c4ccc(F)cc4)c3C=C1CCC1C2[C@@H](O)CC2(C)C1CC[C@]2(O)C(=O)CSc1nc2ccccc2c(=O)[nH]1 (some centres unmarked) [Compound 12]
read-out: IL-8 inhibition (TR) Emax % inhibition
  Emax: > 80%
read-out: IL-8 inhibition (TR) IC50
  IC50: 0.06 to 20 nM
